# Data reported in patent US11173162B2, “Bicyclic heterocycles as FGFR4 inhibitors” (Incyte Corporation, priority 2015, dated 2021).
# System: FGFR3 enzyme
# Assay: FGFR Enzymatic Assay (FRET peptide phosphorylation), FGFR3
# Format: biochemical
# Protocol: The inhibitor potency of the exemplified compounds was measured in an enzyme assay that measures peptide phosphorylation using FRET measurements to detect product formation. Inhibitors were serially diluted in DMSO and a volume of 0.5 μL was transferred to the wells of a 384-well plate.
# GraphPad prism3 was used to analyze the data.
smiles,measurement,value
"CCN1C(=O)N(c2c(F)c(OC)cc(OC)c2F)Cc2cnc(-c3ccc(C(=O)NC)nc3)cc21 [Example 24, 5-(3-(2,6-difluoro-3,5-dimethoxyphenyl)-1-ethyl-2-oxo-1,2,3,4-tetrahydropyrido[4,3-d]pyrimidin-7-yl)-N-methylpicolinamide]",FGFR1/FGFR3,>5
